## AlphaSeq binding of Ab-91 heavy chain variants to a spike HR2 peptide

All variants were tested on one target, the spike HR2 peptide PDVDLGDISGINAS (SARS-CoV-2).

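The starting antibody came from a phage panning campaign against this peptide. The library (AAYL51) carries one to three amino acid substitutions per variant, with no insertions or deletions. In AlphaSeq, yeast of one mating type display the scFv and yeast of the other type display the target. The frequency of each diploid, read from paired DNA barcodes, reflects how well the two displayed proteins bind. The ratio of observed to expected reads was calibrated, replicate by replicate, on BCL2-family standards whose Kd was known from biolayer interferometry. Each pool was mated in three replicate cultures.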

The variants keep the light chain, the linker and the frameworks of Ab-91 (scFv order VL, a (GGGGS)3 linker, VH).
VL: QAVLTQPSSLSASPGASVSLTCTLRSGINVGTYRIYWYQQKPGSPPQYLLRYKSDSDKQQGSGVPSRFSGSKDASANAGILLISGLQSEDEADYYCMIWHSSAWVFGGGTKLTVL
VH: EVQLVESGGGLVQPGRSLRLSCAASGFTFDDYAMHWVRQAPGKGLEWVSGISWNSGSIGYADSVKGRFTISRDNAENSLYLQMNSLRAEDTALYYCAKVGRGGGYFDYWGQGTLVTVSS

Changes read parent residue, position, new residue, counted from the first residue of the VH shown. All variants listed here change F29 of the VH, counted from its first residue. Scale: log10 of Kd in nM, estimated from mating counts; low values are strong binders. Averages over replicates are reported, and they cover detected replicates only. Where no diploid with the target was found in that replicate, the entry reads "nd": below detection, most likely a poor binder, though not proof of it. In this assay the parent's reference entry averaged 1.86; its copy inside this library read 0.88.

changes,"replicates, log10 nM","mean, log10 nM"
F29C N54Y G104E,5.29 / 3.91 / nd,4.60
F29M W53R G100C,2.58 / 2.54 / 2.74,2.62
F29D V99Q Y108D,5.95 / nd / nd,5.95
F29I D31T Y60A,3.39 / 5.97 / nd,4.68
F29G I58S,nd / 3.56 / nd,3.56
F29G S55C V64G,nd / nd / nd,nd
F29D Y32P S55Q,nd / nd / nd,nd
F29Y S57R Y60S,5.09 / nd / nd,5.09
T28K F29S A33H,4.53 / nd / nd,4.53
F29N S55G,3.56 / nd / nd,3.56
F29R N54M S57E,nd / nd / nd,nd
F29K G59W Y60A,4.64 / 5.29 / 4.83,4.92
F29N G50C Y105D,nd / nd / nd,nd
F29C D30Y I58S,2.15 / 2.21 / 1.79,2.05
F29P W53F Y60I,nd / nd / nd,nd
F29K D30F S52Q,nd / nd / nd,nd
F29E I58A G100Q,nd / nd / nd,nd
F29H I51D W53T,5.69 / 5.41 / 4.91,5.34
F29Q D31L I51G,nd / nd / nd,nd
F29S A33K,3.64 / 3.84 / 5.20,4.23
F29W A33S V64D,nd / nd / nd,nd
F29Q S52R G103E,2.59 / nd / nd,2.59
F29V A33P G103S,nd / nd / nd,nd
T28V F29Q D107V,4.65 / 6.80 / 5.85,5.77
F29N S52D W53F,nd / nd / nd,nd
F29W W53D V99T,4.95 / 4.41 / nd,4.68
F29C S55D D107K,5.02 / 5.41 / 3.21,4.55
F29R G56W G100R,nd / nd / nd,nd
F29S S57Q G100Q,nd / nd / 3.44,3.44
F29V D30F G56L,5.60 / 3.53 / 3.13,4.09
F29S V99P,nd / nd / nd,nd
F29M G59A V99C,3.93 / nd / nd,3.93

Excerpt, the first 5 entries:

changes	replicates, log10 nM	mean, log10 nM
F29C N54Y G104E	5.29 / 3.91 / nd	4.60
F29M W53R G100C	2.58 / 2.54 / 2.74	2.62
F29D V99Q Y108D	5.95 / nd / nd	5.95
F29I D31T Y60A	3.39 / 5.97 / nd	4.68
F29G I58S	nd / 3.56 / nd	3.56

Background: pairings of library AAYL51 with three empty control strains gave a value in 21% of cases (median 4.54, 5th percentile 3.26). Values in that range, when seen in few replicates, are hard to tell from nonspecific mating.

Data: MIT Lincoln Laboratory AlphaSeq set, Engelhart et al. 2022, doi:10.1038/s41597-022-01779-4, as distributed in FLAb.